The values that follow are results of earlier work, collected in US20090252703A1, “Use of alcohol co-solvents to improve pegylation reaction yields” (priority 2006, published 2009).

For the data set the following is noted: cited from earlier work.

Turning to “CGRP: calcitonin gene-related peptide (CGRP), native peptide”, the “half-life in mammalian plasma” value is reported as “about 10 min”.
